On the set-up of data set [1]: species or system Rats (OFA, Sprague-Dawlay). The conditions noted are these: rat, in vivo. Here is the method: The stick gum administered to Rats contains 5 mg of vegetal extract titrated at 25% of anthocyanosides (i.e. 1.250 μg of anthocyanosides). The Sprague Dawley rat (10 Males) used extensively in medical research weighing 450-520 g were received and placed separately in cage in room temperature controlled (22° C.). This rat species is chose for its calmness and its easy handling. […] J. Nutr 2002). As anthocyanins are particularly susceptible to pH variations and are unstable at intestinal pH, collected samples were analyzed by HPLC after acidification with 240 mmol/L HCl, to allow the comparison with intestinal administration. […] Spectrum was compared to Cyanidin 3-glucoside that represent 98% of total anthocyanins. […] Anthocyanin metabolites were detected according to the respective m/z values of their parent and product ions. Absorption from mucosal epithelium and serum was estimated by calculating the difference between anthocyanin quantity contained in buccal gum patch administered and the amount recovered at the end in samples. Rats (OFA, Sprague-Dawlay) received a lingual administration of anthocyanins with an orodispersible gum containing 1.25 mg of anthocyanin. The stick gum was deposited at the buccal mucosa area. […] After acidification, plasma samples were conserved at -80° C. and analyzed by LC-MS/MS (Liquid Chromatography-Mass Spectrometer/Mass Spectrometer). In parallel, epithelium and conjunctive tissues were collected 45 minutes post-administration, placed in formic acid and eventually conserved at -80° C. Before LC-MS/MS analyze, tissues were washed in PBS (phosphate buffered saline) and homogenized on ice. Protein concentrations were determined by Lowry method. […] Absorption was estimated by calculating the administering/recovering anthocyanosides estimated concentration in samples ratio. Quantification was adjusted in respect of residual anthocyanoside quantity contained in buccal washing (anthocyanosides extracted from stick gum not absorbed and residual non dissolved stick gum).

Data set [2] is described as follows: Digestive versus sublingual absorption, plasmatic level 1 hour after administration. The conditions noted are these: rat, in vivo. Details: species or system Rats. The protocol:
Taurin and Lutein plasmatic level are evaluated using HPLC process as described Lallemand F. et al, 2004 and Shanmugam S, et al, 2011, respectively.

With Anthocyanin, in data set [1], the “Anthocyanin (μg/ml of plasma), Mean +/- SEM” value was 212 +/− 9 μg/ml of plasma; the “absorption of anthocyanin, lingual way as compared to the digestive way” value is recorded as “more effective”; the “amount of absorbed anthocyanin, 25% extract by lingual route versus 50% extract by digestive route” value was “greater”; the “calculated absorption of anthocyanin, lingual route versus digestive route” value is reported as “more than 10 fold”. The “absorption, lingual way as compared to the digestive way” value in data set [2] is “more effective”.

These data come from patent US20130115174A1, “TRANSMUCOSAL COMPOSITION CONTAINING ANTHOCYANINS FOR ALLEVIATING A VISUAL DISCOMFORT” (priority 2010, published 2013).
